Key:
spinal cord of EAE mice [1] = experiment: EAE, inflammatory mediators in spinal cord protein extracts (ELISA); conditions: day 26; ORY-2001 0.5 mg/kg, ORY-LSD1 180 µg/kg
human S1P1 receptor = human S1P1 receptor (Homo sapiens, UniProt P21453); experiment: CellKey impedance assay in CHO cells, agonistic and antagonistic effect; conditions: GPCR based impedance assays
spleen cells of EAE mice = experiment: EAE, autoreactive response of spleen cells from treated mice (proliferation, cytokines/chemokines); conditions: day 26; ORY-2001 0.5 mg/kg, ORY-LSD1 180 µg/kg
[2] = system: spleen and lymph nodes of EAE mice; experiment: EAE, cell number in spleen and lymph nodes, flow cytometry of CD4 T cells; conditions: day 26; ORY-2001 0.5 mg/kg, ORY-LSD1 180 µg/kg
[3] = system: C57BL/6 mice with chronic EAE; experiment: Chronic EAE induced by MOG35–55, clinical score; type: in vivo, mouse
spinal cord of EAE mice [4] = experiment: EAE, histopathology of spinal cord (demyelination plaques, infiltration); conditions: day 26; lumbar and cervical; ORY-2001 0.5 mg/kg, ORY-LSD1 180 µg/kg

Protein sequences, listed by entry. Tags and fused reporters are not part of them.
UniProt P21453, whole entry: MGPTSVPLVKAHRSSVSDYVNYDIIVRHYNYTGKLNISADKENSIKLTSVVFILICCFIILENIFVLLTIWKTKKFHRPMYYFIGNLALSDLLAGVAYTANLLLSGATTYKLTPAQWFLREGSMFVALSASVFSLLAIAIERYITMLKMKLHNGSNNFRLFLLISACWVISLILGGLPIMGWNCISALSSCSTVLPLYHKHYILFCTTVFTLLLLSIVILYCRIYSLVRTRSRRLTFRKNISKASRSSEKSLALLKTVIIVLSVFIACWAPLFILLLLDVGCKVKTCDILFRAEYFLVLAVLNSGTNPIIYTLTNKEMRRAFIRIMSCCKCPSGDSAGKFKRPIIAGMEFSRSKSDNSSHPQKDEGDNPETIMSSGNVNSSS

Compound: Fc1ccccc1C1CC1NC1CCNCC1 (stereo not drawn)
- IFNγ, IL-17 and IP-10 levels in spinal cord (spinal cord of EAE mice [1]): no significant changes
- IL-4 levels in spinal cord (spinal cord of EAE mice [1]): significant increase in the levels of IL-4
- agonist and antagonist activity at S1P1 receptor (human S1P1 receptor): neither ORY-2001 nor ORY-LSD1 (at concentrations well above those needed to fully inhibit KDM1A) showed any activity
- IFNγ, IL-17 and IP-10 levels, MOG35–55-specific recall response (spleen cells of EAE mice): produced equivalent levels of IFNγ, IL-17, and IP-10
- IL-4 production by spleen cells (spleen cells of EAE mice): increased with both treatments
- number of immune cells in spleen and lymph nodes [2]: significant increase in the number of immune cells
- effect on disease severity ([3]; EAE experiment 1 (severe), p.o. ORY-2001 1 mg/kg, ORY-LSD1 180 µg/kg): did not significantly reduce disease severity
- animals with severe manifestations/signs of the disease ([3]; EAE experiment 1 (severe), p.o. ORY-2001 1 mg/kg, ORY-LSD1 180 µg/kg (maximum clinical score ≥ 4.0)): 40%
- mean maximum clinical score ([3]; EAE experiment 1 (severe), p.o. ORY-2001 1 mg/kg, ORY-LSD1 180 µg/kg, days 12-16 and 19-23): 3.0
- mice with no or only mild clinical signs at the end of the study ([3]; EAE experiment 2): 60%
- effect on clinical course / disease severity ([3]; EAE experiment 2 (mild), p.o. ORY-2001 0.05, 0.5, 1 mg/kg, ORY-LSD1 90, 180 µg/kg, rasagiline 3 mg/kg): did not significantly reduce disease severity
- animals with severe signs (maximum clinical score 3.5–6) ([3]; EAE experiment 2, highest dose tested): 10%
- clinical signs at the peak of the disease ([3]; EAE sub-chronic phase, to day 26, p.o. ORY-2001 0.5 mg/kg, ORY-LSD1 180 µg/kg): reduced the clinical signs
- animals with moderate clinical score ([3]; EAE sub-chronic phase, ORY-LSD1 180 µg/kg): 30%
- plaques with inflammatory infiltrates and areas of demyelination (spinal cord of EAE mice [4]): remarkable decrease in the number and size of demyelinating plaques

— article PMC9323733, “Efficacy of Vafidemstat in Experimental Autoimmune Encephalomyelitis Highlights the KDM1A/RCOR1/HDAC Epigenetic Axis in Multiple Sclerosis” (Pharmaceutics, 2022)
